# Assays:
# [1] = tested on: Mus musculus; assay: Antinociceptive activity in male C57BL/6J mouse preadministered with compound for 10 mins followed by acetic acid administration and measured after 15 to 30 min by Acetic acid stretching assay (AcAS); settings: time 25-40 min
# [2] = Toxicity in C57BL/6J mouse assessed as increase in ambulation at 30 mg/kg, ip measured up to 1 hr; settings: in vivo
# [3] = Selectivity ratio of ED50 for antinociceptive activity in male C57BL/6J mouse at 10 mg/kg, ip measured after 10 min by 55 degreeC warm-water tail-withdrawal assay to ED50 for antinociceptive activity in male C57BL/6J mouse preadministered with compound for 10 mins followed by acetic acid administration and measured after 15 to 30 min by Acetic acid stretching assay (AcAS)
# [4] = Toxicity in C57BL/6J mouse assessed as respiratory depression at 30 mg/kg, ip measured after 20 mins; settings: in vivo
smiles,measurement,setting,value
CN(C(=O)Cc1ccc(Cl)c(Cl)c1)[C@@H]1CCCC[C@H]1N1CCCC1,ED50,[1],2.22 mg/kg
same,Activity,[2],Non-toxic
same,Ratio ED50,[3],8.88
same,Activity,[4],Toxic
